Data on 3 compounds can be found in patent US20210196782A1 (priority 2015, published 2021).

Protein sequences, listed by entry. Tags and fused reporters are not part of them.
UniProt P41145, whole entry: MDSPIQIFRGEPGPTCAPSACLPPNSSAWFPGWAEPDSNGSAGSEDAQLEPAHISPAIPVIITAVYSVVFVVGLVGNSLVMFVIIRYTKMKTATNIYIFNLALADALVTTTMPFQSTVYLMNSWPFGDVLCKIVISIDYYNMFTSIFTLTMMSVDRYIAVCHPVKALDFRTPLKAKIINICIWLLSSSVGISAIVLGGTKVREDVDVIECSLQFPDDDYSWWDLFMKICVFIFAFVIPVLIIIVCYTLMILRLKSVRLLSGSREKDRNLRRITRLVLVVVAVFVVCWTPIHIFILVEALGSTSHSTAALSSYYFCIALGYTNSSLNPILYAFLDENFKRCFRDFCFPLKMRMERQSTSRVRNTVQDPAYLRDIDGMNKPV
UniProt P33535, whole entry: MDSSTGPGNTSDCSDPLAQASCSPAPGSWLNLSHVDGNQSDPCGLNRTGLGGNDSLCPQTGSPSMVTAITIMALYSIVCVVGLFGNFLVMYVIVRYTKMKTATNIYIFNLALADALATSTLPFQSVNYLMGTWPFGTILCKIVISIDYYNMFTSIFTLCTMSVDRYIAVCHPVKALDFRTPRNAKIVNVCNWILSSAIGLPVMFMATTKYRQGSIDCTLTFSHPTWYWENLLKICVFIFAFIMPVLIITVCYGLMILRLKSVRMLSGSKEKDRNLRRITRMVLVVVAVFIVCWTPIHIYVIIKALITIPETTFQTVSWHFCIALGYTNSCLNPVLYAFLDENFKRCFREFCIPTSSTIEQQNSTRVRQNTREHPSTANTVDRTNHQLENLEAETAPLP
UniProt P41143, whole entry: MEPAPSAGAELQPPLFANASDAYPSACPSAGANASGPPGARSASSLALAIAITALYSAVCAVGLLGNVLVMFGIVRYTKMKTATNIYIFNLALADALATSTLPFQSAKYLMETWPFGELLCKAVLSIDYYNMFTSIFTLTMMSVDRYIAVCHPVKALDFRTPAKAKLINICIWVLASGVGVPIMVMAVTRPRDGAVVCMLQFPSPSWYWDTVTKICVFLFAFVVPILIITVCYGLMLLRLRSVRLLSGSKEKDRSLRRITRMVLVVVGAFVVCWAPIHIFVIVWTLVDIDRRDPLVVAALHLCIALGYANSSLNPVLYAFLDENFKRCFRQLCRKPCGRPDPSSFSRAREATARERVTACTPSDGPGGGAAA

Assay [1] concerns the target T1, KOR (Homo sapiens, UniProt P41145). In words: [35S]GTPγS binding assay at KOR, agonist and antagonist modes, CHO cells. Conditions: for KOR [35S]GTPγS Emax / EC50: agonist mode; for KOR [35S]GTPγS Emax: % relative to 10 μM U50,488 stimulation; for EC50: read-out: KOR [35S]GTPγS EC50, hKOR in CHO cells; for IC50: read-out: KOR [35S]GTPγS IC50, antagonist mode, inhibition of 100 nM U50,488 stimulation; for KOR function: in words.

The target in assay [2] is MOR (Rattus norvegicus, UniProt P33535). In words: Radioligand competition binding at MOR with [3H]DAMGO, membranes from transfected HEK cells. To be noted: read-out: Ki MOR [3H]DAMGO, Kd=0.85 nM, HEK cell membranes. (In a radioligand displacement assay an active substance lowers the binding of a labelled ligand.)
Assay [3] deals with DOR (Homo sapiens, UniProt P41143). In words: Radioligand competition binding at DOR with [3H]DPDPE, membranes from transfected HEK cells. Conditions: read-out: Ki DOR [3H]DPDPE, Kd=0.50 nM, HEK cell membranes.
Assay [4] addresses T1, KOR. In words: Radioligand competition binding at KOR with [3H]U69,593, membranes from transfected HEK cells. To be noted: read-out: Ki KOR [3H]U69,593; [3H]U69,593, Kd=5.3 nM; HEK cell membranes.

This is a selection: effects in other tests are not listed, and their absence says nothing.

On to `CCCC[C@@H](NC(=O)[C@@H](N)Cc1c(C)cc(O)cc1C)C(=O)NCC(=O)N[C@@H](Cc1ccc(Cl)cc1)C(N)=O`, for which, in assay [1], the “KOR [35S]GTPγS Emax” value was 18%; the concentration for a half-maximal effect (EC50) (usually the midpoint of the concentration-response curve) was 7 nM; the IC50 (in general, the midpoint of a concentration-inhibition curve) came to 66 nM.

On to `CCCC[C@@H](NC(=O)[C@@H](N)Cc1c(C)cc(O)cc1C)C(=O)NCC(=O)N[C@@H](Cc1ccc(F)cc1)C(N)=O`, for which, in assay [1], the “KOR [35S]GTPγS Emax” value was 62%, the KOR function entry is reported as “partial agonist”, the EC50 amounted to 10 nM and the IC50 turned out to be 250 nM. Further, in assay [2], the Ki (as a rule, the equilibrium dissociation constant of an inhibitor or competing ligand from its target) was 0.15 nM. Further, in assay [3], the inhibitory constant (Ki) amounted to 0.64 nM. In assay [4], the Ki was 0.98 nM.

`CCCC[C@@H](NC(=O)[C@@H](N)Cc1c(C)cc(O)cc1C)C(=O)NCC(=O)N[C@@H](Cc1ccccc1)C(N)=O`: in assay [1], the “KOR [35S]GTPγS Emax” value worked out at 59%, the KOR function entry is “partial agonist” and the EC50 came out at 84 nM. In addition, the Ki in assay [2] came to 0.5 nM. The Ki in assay [3] came to 1.2 nM. The Ki in assay [4] stood at 5 nM.
